The assay concerns HCT-116. Description: Antitumor activity against human HCT116 cells xenografted in BALB/c nude mouse assessed as relative tumor increment ratio at 100 mg/kg/day administered via oral gavage for 16 days measured every 3 days. It counts as functional.

SMILES strings stand for the structures.

The text below walks through data of ChEMBL document CHEMBL4020724, “Selective HDAC inhibitors with potent oral activity against leukemia and colorectal cancer: Design, structure-activity relationship and anti-tumor activity study” (Eur J Med Chem, 2017).

As to `O=C(CCCCCCC(=O)Nc1ccccc1)NO` [VORINOSTAT], the T/C was 73%.
